According to PubChem BioAssay AID485273 (Sanford-Burnham Center for Chemical Genomics, 2010):
Only a part is listed here, and it is no random draw. Some structures show a salt or complex split into parts, the way the source records it. Active and inactive are the calls of the source. Cut-off read from the data, not from the text of the source: active = inhibition above about 45% (passing the limit was not always enough); inconclusive = no clear call, values can overlap the other calls.

By UniProt entry, the sequences of proteins in these tests, tags left out.
UniProt P61088, whole entry, looked up: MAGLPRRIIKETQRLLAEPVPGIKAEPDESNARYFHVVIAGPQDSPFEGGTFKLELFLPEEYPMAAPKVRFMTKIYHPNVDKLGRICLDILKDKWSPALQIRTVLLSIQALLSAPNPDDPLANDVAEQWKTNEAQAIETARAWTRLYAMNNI

biological target: Ubiquitin-conjugating enzyme E2 N (Homo sapiens) (UniProt P61088); assay: UBC13 polyubiquitin chain formation inhibitors, primary screen, biochemical, TR-FRET, uHTS (AID 485273); conditions: at 20 µM, stronger effect = higher value

Compound | inhibition
Cc1ccc(NP(C)(=O)Oc2ccccc2)c(C)c1 (stereo unspecified) | inactive: 2.8%
COc1ccccc1OP(C)(=O)Nc1ccc(C)cc1 (stereo unspecified) | inactive: 3.1%
CCOC(=O)c1ccc(NP(C)(=O)Oc2ccccc2)cc1 (stereo unspecified) | inactive: 8.9%
Cc1cc(C)cc(OP(C)(N)=O)c1 (stereo unspecified) | inactive: -0.5%
COc1ccc(OP(C)(=O)Nc2cccc(F)c2)cc1 (stereo unspecified) | inactive: 3.3%
COc1ccccc1OP(C)(=O)Nc1cc(Cl)ccc1C (stereo unspecified) | inactive: 11.7%
O=[N+]([O-])c1cc([N+](=O)[O-])c(Nc2cccnc2)c([N+](=O)[O-])c1 | inactive: -43.9%
Cc1cccc(C)c1OP(C)(N)=O (stereo unspecified) | inactive: -6%
CC(C)(C)c1ccc(OP(C)(=O)Nc2ccc(SC(F)(F)F)cc2)cc1 (stereo unspecified) | inactive: -3.7%
CCN(CC)CCCOC(=O)C(O)(c1ccccc1)c1ccccc1 | inactive: 6.6%
CCOC(=O)c1ccc(NP(C)(=O)Oc2ccc(OC)cc2)cc1 (stereo unspecified) | inactive: 2.7%
O=[N+]([O-])c1cc([N+](=O)[O-])c(O)c([N+](=O)[O-])c1.c1ccc(Oc2ccncc2)cc1 | inactive: -3%
CCOP(C)(=S)SCC(=O)NC(C)C(=O)O (stereo unspecified) | inactive: -0.8%
CP(=O)(Nc1ccccn1)Oc1ccc(Cl)cc1 (stereo unspecified) | inactive: 1.5%
CP(=O)(Oc1ccccc1)OC(c1ccccc1)C(F)(F)F (stereo unspecified) | inactive: 5.3%
Cc1cccc(C)c1OP(C)(=O)Nc1ccc(SC(F)(F)F)cc1 (stereo unspecified) | inactive: -6.4%
CP(=O)(Nc1ccc(SC(F)(F)F)cc1)Oc1ccc(Cl)cc1 (stereo unspecified) | inactive: 10%
Cc1cc(C)cc(OP(C)(=O)Nc2ccc(SC(F)(F)F)cc2)c1 (stereo unspecified) | inactive: 11.9%
CP(=O)(NC(=O)Nc1ccccc1)Oc1ccccc1 (stereo unspecified) | inactive: 2.9%

Compound | inhibition
CCc1ccc(OP(C)(=O)N2CCN(c3ccc([N+](=O)[O-])cc3)CC2)cc1 (stereo unspecified) | inactive: -14.7%
CP(=S)(Nn1cnnc1)Oc1ccccc1 (stereo unspecified) | inactive: -1.2%
CP(=O)(Nc1ccccc1Br)Oc1ccccc1 (stereo unspecified) | inactive: -0.7%
COc1ccccc1OP(C)(=O)Nc1ccccc1 (stereo unspecified) | inactive: -6.9%
COc1ccccc1OP(C)(=O)Nc1c(C)cccc1C (stereo unspecified) | inactive: 2.2%
CN1CCCCC1COC(=O)C1(O)c2ccccc2CCc2ccccc21 (stereo unspecified) | inactive: 7.5%
CCCOc1ccc(NP(C)(=O)Oc2ccc(Cl)cc2)cc1 (stereo unspecified) | inactive: 1.7%
CP(=O)(Nc1ccc(SC(F)(F)F)cc1)Oc1ccccc1 (stereo unspecified) | inactive: 12.1%
CCOC(=O)C(CC)C1=NC(C)(C)Cc2ccccc21.O=[N+]([O-])c1cc([N+](=O)[O-])c(O)c([N+](=O)[O-])c1 (stereo unspecified) | inactive: -8.8%
CC1=C2N=C(C=C3N=C(C(C)=C4[N-][C@@](C)([C@@H]5N=C1[C@](C)(CCC(=O)NC[C@@H](C)OP(=O)([O-])O[C@H]1[C@@H](O)[C@@H](n6cnc7cc(C)c(C)cc76)O[C@@H]1CO)[C@H]5CC(N)=O)[C@@](C)(CC(N)=O)[C@@H]4CCC(N)=O)[C@@](C)(CC(N)=O)[C@@H]3CCC(N)=O)C(C)(C)[C@@H]2CCC(N)=O.[C-]#N.[Co+3] | inactive: -110%
O=[N+]([O-])c1cc([N+](=O)[O-])c(Nc2nnnn2CCO)c([N+](=O)[O-])c1 | inactive: -60.9%
O=[N+]([O-])c1cc([N+](=O)[O-])c(-c2cnn(-c3ccccc3)c2)c([N+](=O)[O-])c1 | inactive: -5.5%
Cc1nc2ccc3ccccc3c2s1.O=[N+]([O-])c1cc([N+](=O)[O-])c(O)c([N+](=O)[O-])c1 | inactive: -15.3%
O=[N+]([O-])c1cc([N+](=O)[O-])c(-n2nnc3ccccc32)c([N+](=O)[O-])c1 | inactive: -23.7%
Cc1ccc(C)c(NP(C)(=O)Oc2ccccc2)c1 (stereo unspecified) | inactive: -6.2%
Cc1cc(C)cc(OP(C)(=O)Nc2ccccn2)c1 (stereo unspecified) | inactive: 7.3%
CP(=O)(Nc1cccc(Br)c1)Oc1ccccc1 (stereo unspecified) | inactive: 3.4%
COc1ccccc1OP(C)(=O)Nc1cccc(Br)c1 (stereo unspecified) | inactive: 9.4%
CCOC(=O)c1ccc(NP(C)(=O)Oc2cc(C)cc(C)c2)cc1 (stereo unspecified) | inactive: 1.8%

Compound | inhibition
Cc1cc(C)cc(OP(C)(=O)Nc2ccc(C)cc2C)c1 (stereo unspecified) | inactive: -4.8%
CC1=NCCc2c1[nH]c1ccccc21.O=[N+]([O-])c1cc([N+](=O)[O-])c(O)c([N+](=O)[O-])c1 | inactive: -3.3%
O=C(O)c1cccc(Nc2c([N+](=O)[O-])cc([N+](=O)[O-])cc2[N+](=O)[O-])c1 | inactive: -36.3%
CCN(CC)CCCOC(=O)C(O)(c1ccccc1)C1CCCCC1 (stereo unspecified) | inactive: 13%
CP(=O)(Nc1ccccc1)Oc1ccc(F)cc1 (stereo unspecified) | inactive: -6.7%
O=[N+]([O-])c1cc([N+](=O)[O-])c(OC2CCCCC2O)c([N+](=O)[O-])c1 (stereo unspecified) | inactive: -11.4%
CCCCCOc1ccc(NP(C)(=O)Oc2ccc(Cl)cc2Cl)cc1 (stereo unspecified) | inactive: 12.7%
CCOC(=O)c1ccc(NP(C)(=O)Oc2ccc(F)cc2)cc1 (stereo unspecified) | inactive: 5.6%
COc1ccc(OP(C)(=O)Nc2ccc(SC(F)(F)F)cc2)cc1 (stereo unspecified) | inactive: 10.9%
O=C(OC1CN2CCC1CC2)c1ccc([N+](=O)[O-])cc1 (stereo unspecified) | inactive: -6.2%
O=C(OCCN1CCN(CCOCc2ccccc2)CC1)C(O)(c1ccccc1)c1ccccc1 | inactive: 6.4%
COc1ccc2c(c1O)-c1c(O)c(OC)cc3c1[C@H](C2)[N+](C)(C)CC3.O=[N+]([O-])c1cc([N+](=O)[O-])c([O-])c([N+](=O)[O-])c1[O-] | inactive: -31.4%
CP(=O)(Nc1ccccc1F)Oc1ccccc1 (stereo unspecified) | inactive: 3.4%
CC(C)c1ccc(OP(C)(=O)Nc2ccc(SC(F)(F)F)cc2)cc1 (stereo unspecified) | inactive: 3.4%
CP(=O)(Nc1ccc2c(c1)OCCO2)Oc1ccccc1 (stereo unspecified) | inactive: 1%
Cc1ccccc1NP(C)(=O)Nc1ccccc1C | inactive: -10.1%
CP(=O)(Nc1ccc(SC(F)(F)F)cc1)Oc1ccc(F)cc1 (stereo unspecified) | inactive: 3.8%
CCOP(C)(=S)SCC(=O)NC(C)(CC)C(=O)O (stereo unspecified) | inactive: 12.5%
